Laboratory results: patent EP4682156A1, “LINKER AND DRUG CONJUGATE USING SAME, AND ANTIBODY-DRUG CONJUGATE AND USE THEREOF” (Shanghai Affinity Biopharmaceutical Co., Ltd., priority 2023, dated 2024)

Tested on: Human Fibrosarcoma
Assay: Drug efficacy study of drug conjugates on human fibrosarcoma tumor model
Format: in vivo, Nude mice
Conditions: 5 µmol/kg (1/10 MTD) once a week for 3 weeks

DXd
Anti-tumor rate% Day 20: 80%
Tumor volume(mm^3) Day 20: 200 mm^3
